Earlier results as cited in patent US12172965B2, “Drug conjugate comprising quinoline derivatives” (UNIVERSITE PARIS-SACLAY, priority 2018, dated 2024).

Tested on: cell line SKBR3
Conditions: prior-art ADC, PCT/EP2018/058168; cited from earlier work

**Q.** Which “IC50 against the cell line SKBR3” value does the source give for Trastuzumab-VC-PAB-ICQO-I here?
**A.** 27 µg/mL
